In patent US20080070240A2, “COMPOSITION FOR DEAMINATING DNA AND METHOD OF DETECTING METHYLATED DNA” (Toyo Boseki Kabushiki Kaisha, priority 2004, published 2008):

Experiment: Measurement of solubility of sulfites in distilled water
Conditions: for Concentration, Calculated value: calculated from mass and molecular weight
Protocol: To a cuvette for measuring absorbance (1×1×4 cm, manufactured by Hitachi High-Technologies Co.), 3 ml of 0.1 N hydrochloric acid (manufactured by Wako Pure Chemical Co., Ltd.) was added. To the cuvette, 30 μl of a sulfite solution diluted with distilled water was added, the cuvette was covered with parafilm, and inverted 3 times to mix the solutions.
Then, the mass, volume and pH at that time were measured. In addition, with regard to each solution, the sulfite concentration was measured in accordance with the method 0-A described above.
With regard to the concentration in the table, the calculated value represents the sulfite concentration (M (mol/l)) calculated from the mass and the molecular weight of each dissolved sulfite. In addition, the measured value represents the sulfite concentration (M) measured in accordance with the method 0-A described above.

Substance: ammonium sulfite monohydrate
- pH of saturated solution (30° C.): 8.5
- Concentration, Calculated value (30° C.): 3.5 M
- pH of saturated solution (70° C.): 8.2
- Concentration, Calculated value (70° C.): 4.6 M
